The source of these data is the NIST ThermoML archive (doi:10.1021/acs.jced.7b00542).

The nature of data set [1]: Molar enthalpy of transition or fusion. The conditions noted are these: Crystal; DSC.
For data set [2] the following is noted: Crystal; DTA.

Numbers after ± are expanded uncertainties.

In the case of `CS(=O)(=O)c1ccc([C@@H](O)[C@@H](CO)NC(=O)C(Cl)Cl)cc1` [thiamphenicol], the “Molar enthalpy of transition or fusion” value in data set [1] was found to be 46.9 ± 1.2 kJ/mol. In addition, in data set [2], the Normal melting temperature is 164.61 ± 1.1 °C.
